From publication PMC4366854, “Molecular origins of synaptotagmin 1 activities on vesicle docking and fusion pore opening” (Scientific Reports, 2015) come the findings set out here.

By UniProt entry, the sequences of proteins in these tests, tags left out. Chains listed by the source or under a name are the forms on record and can include a tag or linker. Residues count along the entry.
UniProt P63045, 1-96, chain 1 of 3: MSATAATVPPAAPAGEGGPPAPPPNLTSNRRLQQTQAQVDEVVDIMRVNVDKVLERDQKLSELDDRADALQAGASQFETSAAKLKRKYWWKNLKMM
ternary SNARE complex of GST-tagged soluble VAMP2 (1-96), syntaxin 1A (191-266) and His-tagged SNAP-25, UniProt P32851, 191-266, chain 2 of 3: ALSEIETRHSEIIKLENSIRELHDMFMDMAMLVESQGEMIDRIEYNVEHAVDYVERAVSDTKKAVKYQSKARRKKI
ternary SNARE complex of GST-tagged soluble VAMP2 (1-96), syntaxin 1A (191-266) and His-tagged SNAP-25, UniProt P60881, whole entry C85A/C88A/C90A/C92A, chain 3 of 3: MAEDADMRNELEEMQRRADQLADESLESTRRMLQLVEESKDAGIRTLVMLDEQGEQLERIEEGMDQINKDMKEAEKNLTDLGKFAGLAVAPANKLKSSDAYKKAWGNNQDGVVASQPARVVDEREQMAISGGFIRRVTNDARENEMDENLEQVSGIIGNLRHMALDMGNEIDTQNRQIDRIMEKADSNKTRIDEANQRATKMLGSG

Changes are numbered by the printed parent chain. Names may count otherwise.

B1: wild-type Syt1 (recombinant synaptotagmin 1, amino acids 50-421, C74A/C75A/C77A/C79A/C82S) (domain or fragment, UniProt P21707 50-421, looked up)
chain: LHKIPLPPWALIAIAIVAVLLVVTAAFAVAKKSLFKKKNKKKGKEKGGKNAINMKDVKDLGKTMKDQALKDDDAETGLTDGEEKEEPKEEEKLGKLQYSLDYDFQNNQLLVGIIQAAELPALDMGGTSDPYVKVFLLPDKKKKFETKVHRKTLNPVFNEQFTFKVPYSELGGKTLVMAVYDFDRFSKHDIIGEFKVPMNTVDFGHVTEEWRDLQSAEKEEQEKLGDICFSLRYVPTAGKLTVVILEAKNLKKMDVGGLSDPYVKIHLMQNGKRLKKKKTTIKKNTLNPYYNESFSFEVPFEQIQKVQVVVTVLDYDKIGKNDAIGKVFVGYNSTGAELRHWSDMLANPRRPIAQWHTLQVEEEVDAMLAVKK
notes: synaptotagmin 1 (Syt1), amino acids 50-421; source: E. coli BL21 (DE3), purified
B2: Syt1-C2B* (D363A/D365A) (domain or fragment, UniProt P21707 50-421, looked up)
chain: B1 chain with D314A, D316A
notes: as for B1
B3: Syt1 QQQ (Lys326, Lys327, Lys331 to Gln) (domain or fragment, UniProt P21707 50-421, looked up)
chain: B1 chain with K277Q, K278Q, K282Q
notes: synaptotagmin 1 (Syt1), amino acids 50-421; polybasic region mutant of m1; The methods print L326/327/331Q; also called Syt1 QQQ (L326/327/331Q); source: E. coli BL21 (DE3), purified
B4: Syt1 2A(A) (M173A/F234A) (domain or fragment, UniProt P21707 50-421, looked up)
chain: B1 chain with M124A, F185A
notes: synaptotagmin 1 (Syt1), amino acids 50-421; loop region mutant of m1; source: E. coli BL21 (DE3), purified
B5: Syt1-C2A* (D230A/D232A) (domain or fragment, UniProt P21707 50-421, looked up)
chain: B1 chain with D181A, D183A
notes: as for B1
B6: Syt1 2W(B) (V304W/I367W) (domain or fragment, UniProt P21707 50-421, looked up)
chain: B1 chain with V255W, I318W
notes: as for B4
B7: Syt1 2A(B) (V304A/I367A) (domain or fragment, UniProt P21707 50-421, looked up)
chain: B1 chain with V255A, I318A
notes: as for B4
B8: Syt1-C2A*B* (D230A/D232A/D363A/D365A) (domain or fragment, UniProt P21707 50-421, looked up)
chain: B1 chain with D181A, D183A, D314A, D316A
notes: as for B1
B9: Syt1 4W (M173W/F234W/V304W/I367W) (domain or fragment, UniProt P21707 50-421, looked up)
chain: B1 chain with M124W, F185W, V255W, I318W
notes: as for B4
B10: Syt1 4A (M173A/F234A/V304A/I367A) (domain or fragment, UniProt P21707 50-421, looked up)
chain: B1 chain with M124A, F185A, V255A, I318A
notes: as for B4
B11: Syt1 2W(A) (M173W/F234W) (domain or fragment, UniProt P21707 50-421, looked up)
chain: B1 chain with M124W, F185W
notes: as for B4
B12: Syt1 Y311N (domain or fragment, UniProt P21707 50-421, looked up)
chain: B1 chain with Y262N
notes: synaptotagmin 1 (Syt1), amino acids 50-421; mutant of m1; source: E. coli BL21 (DE3), purified

This assay has as its target ternary SNARE complex of GST-tagged soluble VAMP2 (1-96), syntaxin 1A (191-266) and His-tagged SNAP-25 (rat, UniProt P63045 1-96; P32851 191-266; P60881 1-206, C85A | C88A | C90A | C92A). Put plainly: pull-down; GST pull-down: ternary SNARE complex (GST-VAMP2 1-96 / syntaxin 1A 191-266 / His-SNAP-25) held on glutathione-agarose beads; wild-type Syt1 or mutants added in cleavage buffer (50 mM Tris-HCl pH 8.0, 150 mM NaCl, 0.8% OG) with 500 uM Ca2+, 4 °C, 1 h; SDS-PAGE, Coomassie blue; wild type also tested with BSA, 200 uM IP3 or without Ca2+. The following applies: both partners purified.
Take B1: the binding result is on record as “binds”.

In the case of B2, the binding result was “binds”.

On to B3, for which the binding result was “binds”.

In the case of B4, the binding result was “binds”.

On to B5, for which the binding result is “binds”.

Regarding B6, the binding result is reported as “binds”.

In the case of B7, the binding result is “binds”.

Consider B8, for which the binding result was “binds”.

For B9, the binding result is reported as “binds”.

In the case of B10, the binding result is “binds”.

On to B11, for which the binding result was “binds”.

With B12, the binding result is on record as “binds”.
